Measured values published in patent US12364718B2, “Microbial compositions to increase the production of PCA from polyphenols” (priority 2020, dated 2025).

Test system: B. subtilis 1579
Assay: National Antimicrobial Resistance Monitoring System (NARMS) panel screening, MIC in […] 96-well plate
Format: cell-based, Bacillus subtilis
Settings: CLSI M45 Bacillus spp. or NARMS Enterococcus breakpoints; for MIC interpretation (susceptible/intermediate/resistant), 1579a: duplicate a; for MIC interpretation (susceptible/intermediate/resistant), 1579b: duplicate b
Method: Methods. […] A sterile swab was used to take a portion of the pellet and resuspended in sterile ddH2O tubes; a 0.5 McFarland standard was used to determine the optimal dilution. 15 microliters of the ddH2O was transferred into the 5 mL tubes of Mueller-Hinton broth and the mixture was vortexed and poured into a sterile boat. A p200 multi-channel pipette was used to transfer 50 microliters into each well of the […] 96-well microtiter plate (CMV3AGPF) plate (FIG. 3) and sealed. The plates were incubated at 37° C. overnight. The plates were removed at 18 hours and each well was given a result of either positive or negative depending on if there was any growth in the well.

| Molecule | MIC interpretation (susceptible/intermediate/resistant), 1579a | MIC interpretation (susceptible/intermediate/resistant), 1579b |
| --- | --- | --- |
| NC[C@H]1O[C@H](O[C@H]2[C@H](O)[C@@H](O[C@H]3O[C@H](CO)[C@@H](O)[C@H](N)[C@H]3O)[C@H](N)C[C@@H]2N)[C@H](O)[C@@H](O)[C@@H]1O [Kanamycin] | S | R |
| Quinupristin/dalfopristin | R | R |
| [H]/N=C(/N)N[C@H]1[C@H](O)[C@@H](O)[C@H](O[C@@H]2O[C@@H](C)[C@](O)(C=O)[C@H]2O[C@@H]2O[C@@H](CO)[C@H](O)[C@@H](O)[C@@H]2NC)[C@@H](N/C(N)=N\[H])[C@@H]1O [Streptomycin] | R | S |
| CC[C@H]1OC(=O)C[C@@H](O)[C@H](C)[C@@H](O[C@@H]2O[C@H](C)[C@@H](O[C@H]3C[C@@](C)(O)[C@@H](O)[C@H](C)O3)[C@H](N(C)C)[C@H]2O)[C@@H](CC=O)C[C@@H](C)C(=O)/C=C/C(C)=C/[C@@H]1CO[C@@H]1O[C@H](C)[C@@H](O)[C@@H](OC)[C@H]1OC [Tylosin tartrate] | S | S |
| CCC[C@@H]1C[C@@H](C(=O)N[C@@H]([C@H]2O[C@H](SC)[C@H](O)[C@@H](O)[C@H]2O)[C@@H](C)O)N(C)C1 [Lincomycin] | R | R |
| CC(=O)NC[C@H]1CN(c2ccc(N3CCOCC3)c(F)c2)C(=O)O1 [Linezolide] | I | R |

Where a name gives a salt, the structure may show the parent alone.
